Source: article PMC5613693, “Interactions of Desmethoxyyangonin, a Secondary Metabolite from Renealmia alpinia, with Human Monoamine Oxidase-A and Oxidase-B” (Evidence-based Complementary and Alternative Medicine : eCAM, 2017)

Amino acid sequences for entries named in this document (tags omitted).
UniProt P21397, whole entry: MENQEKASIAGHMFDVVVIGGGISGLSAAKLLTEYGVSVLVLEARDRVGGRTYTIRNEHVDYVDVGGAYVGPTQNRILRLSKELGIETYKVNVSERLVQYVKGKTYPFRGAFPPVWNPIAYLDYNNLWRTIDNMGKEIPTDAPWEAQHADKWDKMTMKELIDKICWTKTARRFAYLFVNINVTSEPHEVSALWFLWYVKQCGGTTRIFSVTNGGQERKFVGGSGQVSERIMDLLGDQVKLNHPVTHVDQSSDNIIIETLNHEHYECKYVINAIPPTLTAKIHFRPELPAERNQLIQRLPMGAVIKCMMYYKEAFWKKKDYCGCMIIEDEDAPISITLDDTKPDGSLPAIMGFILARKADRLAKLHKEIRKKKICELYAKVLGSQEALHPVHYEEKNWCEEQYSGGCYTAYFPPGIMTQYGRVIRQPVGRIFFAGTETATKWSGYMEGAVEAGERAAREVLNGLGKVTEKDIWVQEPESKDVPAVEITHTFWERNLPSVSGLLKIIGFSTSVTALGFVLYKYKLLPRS

Target: T1, recombinant human MAO-A (Homo sapiens, UniProt P21397)
T1 construct: purchased BD Biosciences (Bedford, MA, USA); host or cells: baculovirus (Autographa californica) infected insect cells (BTI-TN-5B1-4)
Assay: Fluorometric kynuramine deamination assay, MAO-A inhibition (IC50)
Format: biochemical
Details: kynuramine 80 μM; mean ± SD of triplicate; read-out: Monoamine oxidase-A IC50
Experimental: Pure recombinant human monoamine oxidases (MAO-A and MAO-B) enzymes overexpressed in baculovirus (Autographa californica) infected insect cells (BTI-TN-5B1-4) were purchased from BD Biosciences, (Bedford, MA, USA).
Stock solutions of the test compounds/extracts were prepared in DMSO and diluted further in 0.1 M potassium phosphate buffer (pH 7.4) to obtain the desired concentrations. MAO-A and MAO-B activities were determined by fluorometric kynuramine deamination assay set up in 384-well solid white flat-bottom plates. MAO-A and MAO-B inhibition activities (IC50 values) were determined using fixed concentration of the substrate kynuramine and varying concentrations of the test compounds or extracts. The enzyme reactions were carried out in 0.1 M potassium phosphate buffer (pH-7.4). […] The reaction mixtures with buffer/substrate/inhibitor were preincubated for 10 minutes at 37°C, followed by addition of MAO-A and MAO-B to initiate the reaction. The solid white microplates were incubated for 20 minutes at 37°C and the enzymatic reaction was stopped by addition of 28 µL of 2 N NaOH to each well. The deaminated product of kynuramine, which spontaneously cyclizes to 4-hydroxyquinoline, was measured fluorometrically at 320 nm excitation and 380 nm emission wavelengths with a plate reader (SpectraMax M5, Molecular Devices, Sunnyvale, CA, USA). […]

- IC50: 235 ± 21.8 nM
SMILES: NNCCc1ccccc1 [Phenelzine, phenelzine, reference compound]
